For ten substances, Km and kcat results are on record in publication PMC7049730 (Nucleic Acids Research, 2019).

This data set relates to Nc1ncnc2c1ncn2[C@@H]1O[C@H](COP(=O)(O)OP(=O)(O)OP(=O)(O)O)[C@@H](O)[C@H]1O. The data set can be described thus: purified protein. To be noted: no DNA, 65 C, pH 7.5, 5 mM MgCl2, 80 mM NaCl, 0-300 μM ATP, cooperative (Hill fit).

The Km is the concentration of substrate that gives half-maximal velocity. Broadly, the kcat is the maximal rate divided by the concentration of active sites. As to “Pf MR^NBD complex (Mre11-Rad50^NBD) (Pyrococcus furiosus DSM 3638; DEL196-708/L828F)”, the Km worked out at 47.1 ± 2.2 µM and the kcat was 0.014 ± 0.00033 s⁻¹.

On to “Pf MR^NBD complex (Mre11-Rad50^NBD) (Pyrococcus furiosus DSM 3638; D829A/DEL196-708)”, for which the Michaelis-Menten constant (Km) is 24.5 ± 1.0 µM and the kcat was 0.0188 ± 0.00033 s⁻¹.

“Pf MR^NBD complex (Mre11-Rad50^NBD) (Pyrococcus furiosus DSM 3638; D829N/DEL196-708)”: the Km was found to be 44.6 ± 1.2 µM and the kcat was determined as 0.0277 ± 0.00033 s⁻¹.

Regarding “Pf MR^NBD complex (Mre11-Rad50^NBD) (Pyrococcus furiosus DSM 3638; DEL196-708)”, the Km is 17.0 ± 0.9 µM and the kcat worked out at 0.00217 ± 0.00017 s⁻¹.

For “full-length Pf MR complex (Mre11_2-Rad50_2) (Pyrococcus furiosus DSM 3638)”, the Km is recorded as 19.8 ± 2.1 µM and the catalytic constant (kcat) was 0.002 ± 0.00017 s⁻¹.

Turning to “full-length Pf MR complex (Mre11_2-Rad50_2) (Pyrococcus furiosus DSM 3638; D829N)”, the Km was 43.9 ± 0.9 µM and the turnover number (kcat) was determined as 0.006 ± 0.00017 s⁻¹.

“Pf MR^NBD complex (Mre11-Rad50^NBD) (Pyrococcus furiosus DSM 3638; DEL196-708/L828A)”: the Michaelis constant (Km) was 53.2 ± 3.4 µM and the catalytic constant (kcat) amounted to 0.0105 ± 0.00033 s⁻¹.

“full-length Pf MR complex (Mre11_2-Rad50_2) (Pyrococcus furiosus DSM 3638; L828F)”: the Michaelis-Menten constant (Km) turned out to be 49.2 ± 3.5 µM and the turnover number (kcat) worked out at 0.00433 ± 0.00017 s⁻¹.

Regarding “full-length Pf MR complex (Mre11_2-Rad50_2) (Pyrococcus furiosus DSM 3638; D829A)”, the Michaelis-Menten constant (Km) is on record as 39.0 ± 0.7 µM and the turnover number (kcat) turned out to be 0.00767 ± 0.00017 s⁻¹.

Consider “full-length Pf MR complex (Mre11_2-Rad50_2) (Pyrococcus furiosus DSM 3638; L828A)”, for which the Km is listed as 36.7 ± 2.1 µM and the kcat amounted to 0.003 ± 0.00017 s⁻¹.
